Measured values taken from patent publication US6376510B1, “Neuromuscular relaxants” (Newlaxant LLC, priority 1997, dated 2002).

Tested on: anesthetized rats (evoked responses of anterior tibial muscle)
Test: Muscle relaxant (neuromuscular blocking) properties, anesthetized rat (Example 9, Table 9)
Details: at 80-85% neuromuscular blocking dose
Excerpt: The data on muscle relaxant action were obtained on anesthetized rats, and when indicated, also on juvenile pigs
Adult, male albino rats were anesthetized with pentobarbital injected intraperitoneally. Juvenile, Duroc pigs 9-12 kg body weight were anesthetized with Chloralose Nembutal sodium mixture intraperitoneally after deep sedation with inhaled halothane. The trachea was cannulated for artificial respiration via a small animal respirator. The carotid artery was cannulated for recording blood pressure via a transducer and heart rate by a cardiotachograph on a polygraph. One external jugular vein was cannulated for i.v. drug administration. Neuromuscular function was monitored by electromyography, recording evoked responses from the anterior tibial muscle as a result of supramaximal nerve stimuli consisting of single or “train-of-four” rectangular pulses of 0.1-0.2 msec duration every 10-12 seconds, delivered to the sciatic or common peroneal nerve by a laboratory nerve stimulator. Another mode of stimulation included repeated single stimuli delivered at 0.1 Hz or 1 Hz. […] The agents were dissolved in physiologic saline and injected intravenously at appropriate time intervals. The intensity, onset, and duration of neuromuscular block and its type were determined with each agent. Through administering several doses, the doses corresponding to 50%, 80% and 90% neuromuscular block were determined. All agents were compared with selected standard neuromuscular blocking compounds, e.g., rocuronium.
Onset=time in minutes to 80-85% neuromuscular block.
RI=recovery index, minutes, spontaneous recovery, 25-75% neuromuscular response.
VB=vagal block, %, at 80-85% neuromuscular blocking dose.
HR=change in heart rate, %, at 80-85% neuromuscular blocking dose.
BP=change in arterial blood pressure, %, at 80-85% neuromuscular blocking dose.

## Bis[4-dimethylaminocyclohexyl]glutarate bis(benzyl bromide) [reference compound]
  % VB at ED80 nmb (vagal block): 100%
  BP (change in arterial blood pressure): −15 (5) %
  HR (change in heart rate): 0%
